In PubChem BioAssay AID624288 (National Center for Advancing Translational Sciences (NCATS), 2012):
This is a selection; strong and weak results do not stand in their true shares. Inconclusive results are not listed. Active and inactive are the calls of the source. Calls follow the shape of the full dose curve; cell line not stated here.

Test: qHTS for Antagonists of gsp, the Etiologic Mutation Responsible for Fibrous Dysplasia/McCune-Albright Syndrome: qHTS; also: nearly all actives have a fitted effect of over 65% in size
Details: gsp-mutant cells, cAMP HTRF, 30 min; at 76.9 µM (top of the series) unless noted
% is scaled to controls: 0 for no effect and ±100 for the full control effect.

Row | SMILES | activity change, negative = inhibition
1 | O=[N+]([O-])c1cc(Oc2ccc([N+](=O)[O-])cc2C(F)(F)F)cc([N+](=O)[O-])c1 | inactive: -0.684%
2 | COc1ccc(N/C(=N/P(=O)(N2CCOCC2)N2CCOCC2)N2CCOCC2)cc1 | inactive: 9.08%
3 | Cc1c2c(nc3ccccc13)SC(C(Cl)Cl)C2 (centres undefined) | inactive: -29.8%
4 | Cc1cc(=O)[nH]c(N[N+](=O)[O-])n1 | inactive: -13.7%
5 | CCN(CC)CCCOC(=O)C(O)(c1ccccc1)c1ccccc1 | inactive: 10.3%
6 | O=C(OC1CN2CCC1CC2)C12CC3CC(CC(C3)C1)C2 (centres undefined) | inactive: 3.88%
7 | O=P1(N(CCCl)CCCl)Nc2ccccc2N1 | inactive: 2.24%
8 | O=P1(N(CCCl)CCCl)OCCCN1CCCl (centres undefined) | inactive: 13.8%
9 | COc1cc(I)ccc1[As](=O)(O)O | inactive: 2.55%
10 | ClCCSc1nnc(-c2cccnc2)o1 | inactive: 3.74%
11 | CCOC(=O)c1ccc(NP(C)(=O)Oc2ccccc2)cc1 (centres undefined) | inactive: 8.88%
12 | Cc1ccc(NP(C)(=O)Oc2ccccc2)c(C)c1 (centres undefined) | inactive: 7.87%
13 | CC(C)c1ccc(OP(=O)(Nc2ccccn2)Oc2ccccc2F)cc1 (centres undefined) | inactive: -4.39%
14 | COC(=O)C1(C)COP(=O)(N2CCCCCC2)OC1 (centres undefined) | inactive: 4.27%
15 | COc1ccccc1OP(C)(=O)Nc1ccc(C)cc1 (centres undefined) | inactive: 6.44%
16 | O=[N+]([O-])c1cc([N+](=O)[O-])c(-c2ccn[nH]2)s1 | inactive: 8.09%
17 | COc1ccc(OP(C)(=O)Nc2cccc(F)c2)cc1 (centres undefined) | inactive: 10.4%
18 | CCN(CC)C(=S)SC(NC=O)C(Cl)(Cl)Cl (centres undefined) | inactive: -1.71%
19 | O=C(OC1CN2CCC1CC2)c1cccc2[nH]cnc12 (centres undefined) | inactive: -6.58%
20 | CC(C)NC(=O)NP(=O)(Oc1ccccc1)Oc1ccccc1 | inactive: 9.14%
21 | COc1ccccc1OP(C)(=O)Nc1cc(Cl)ccc1C (centres undefined) | inactive: 5.44%
22 | Cc1cc(C)cc(OP(C)(N)=O)c1 (centres undefined) | inactive: -30.3%
23 | COc1cc(C(=O)NCC2(N3CCOCC3)CCCCC2)ccc1OCC(C)C | inactive: -2.97%
24 | O=[N+]([O-])c1ccc(-c2cc([N+](=O)[O-])c(O)c([N+](=O)[O-])c2)cc1 | inactive: -14.2%
25 | O=[As](O)(c1ccc(O)cc1)c1ccccc1O | inactive: 16.7%
26 | C[As](=O)(O)c1cccc(C(=O)O)c1 | inactive: 13.5%
27 | Cc1cccc(C)c1OP(C)(N)=O (centres undefined) | inactive: -6.49%
28 | CC(C)(C)c1ccc(OP(C)(=O)Nc2ccc(SC(F)(F)F)cc2)cc1 (centres undefined) | inactive: -24.5%
29 | Cc1ccc(OP(=O)(Nc2ccc([N+](=O)[O-])cn2)Oc2ccc(C)cc2)cc1 | inactive: 1.3%
